Source: patent US12649744B2, “N-(pyridin-2-yl)-6,7,8,9-tetrahydro-5h-5,8-epiminocyclohepta[c]pyridine-10-carboxamide derivatives and similar compounds as GPR65 modulators for the treatment of cancer” (PATHIOS THERAPEUTICS LIMITED, priority 2020, dated 2026)

Sequences of proteins named here, by UniProt entry; tags and fusion partners are left off.
UniProt Q8IYL9, whole entry: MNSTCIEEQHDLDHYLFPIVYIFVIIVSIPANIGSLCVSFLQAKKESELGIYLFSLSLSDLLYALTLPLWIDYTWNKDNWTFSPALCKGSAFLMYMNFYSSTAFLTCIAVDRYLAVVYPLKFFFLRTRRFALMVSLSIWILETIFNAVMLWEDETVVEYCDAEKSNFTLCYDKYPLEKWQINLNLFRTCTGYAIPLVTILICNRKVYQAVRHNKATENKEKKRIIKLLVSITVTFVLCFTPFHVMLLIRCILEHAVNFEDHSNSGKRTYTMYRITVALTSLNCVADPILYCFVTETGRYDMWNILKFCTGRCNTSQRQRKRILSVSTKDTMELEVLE

Molecular target: human recombinant GPR65 (Homo sapiens, UniProt Q8IYL9)
Experiment: Human GPR65 cAMP HTRF antagonist assay
Assay type: cell-based
Conditions: read-out: hGPR65 IC50; 1321N1-hrGPR65 cells, assay pH of 7.2, cAMP HTRF
Text: The “Human GPR65 cyclic adenosine monophosphate (cAMP) Homogeneous Time Resolved Fluorescence (HTRF) antagonist assay”, or simply “cAMP assay”, as described below, can be used to measure the potency of GPR65 modulators, which is expressed as the concentration of compound required to reduce the increase in cAMP concentration upon GPR65 activation by 50% (i.e. an IC50).
Human GPR65 Cyclic Adenosine Monophosphate (cAMP) Homogeneous Time Resolved Fluorescence (HTRF) Antagonist Assay Procedure
IC50 data was obtained by the following procedure:
1321N1 human astrocytoma cells stably expressing human recombinant GPR65 (1321N1-hrGPR65 cells, EuroscreenFast) were cultured according to the vendor's instructions.
Compounds were tested for their ability to antagonise GPR65, through measuring the concentration of cytoplasmic cAMP following treatment of the cells at a pH of 7.2 to activate GPR65 signalling and addition of the compound to be tested. […]
Accumulation of cAMP was detected by cAMP HTRF kit (Cisbio). d2-labeled cAMP and cryptate-labeled anti-cAMP antibody in Lysis and Detection Buffer (Cisbio) were added to assay plates, and the plates were incubated at room temperature for 1 h. […] Acceptor and donor emission signals were measured at 665 nm and 620 nm, respectively, and HTRF ratios were calculated as signal665 nm/signal620nm×10^4. […]

With O=C(Nc1cnc(Cl)c(Cl)c1)N1[C@H]2CC[C@@H]1c1ccnc(F)c1C2 the IC50 was 0.5 to 5 µM.
